Results taken from patent US12692254B2, “Benzimidazole inhibitors of PAD enzymes” (BRISTOL-MYERS SQUIBB COMPANY, priority 2018, dated 2026).

By UniProt entry, the sequences of proteins in these tests, tags left out.
UniProt Q9UM07, whole entry: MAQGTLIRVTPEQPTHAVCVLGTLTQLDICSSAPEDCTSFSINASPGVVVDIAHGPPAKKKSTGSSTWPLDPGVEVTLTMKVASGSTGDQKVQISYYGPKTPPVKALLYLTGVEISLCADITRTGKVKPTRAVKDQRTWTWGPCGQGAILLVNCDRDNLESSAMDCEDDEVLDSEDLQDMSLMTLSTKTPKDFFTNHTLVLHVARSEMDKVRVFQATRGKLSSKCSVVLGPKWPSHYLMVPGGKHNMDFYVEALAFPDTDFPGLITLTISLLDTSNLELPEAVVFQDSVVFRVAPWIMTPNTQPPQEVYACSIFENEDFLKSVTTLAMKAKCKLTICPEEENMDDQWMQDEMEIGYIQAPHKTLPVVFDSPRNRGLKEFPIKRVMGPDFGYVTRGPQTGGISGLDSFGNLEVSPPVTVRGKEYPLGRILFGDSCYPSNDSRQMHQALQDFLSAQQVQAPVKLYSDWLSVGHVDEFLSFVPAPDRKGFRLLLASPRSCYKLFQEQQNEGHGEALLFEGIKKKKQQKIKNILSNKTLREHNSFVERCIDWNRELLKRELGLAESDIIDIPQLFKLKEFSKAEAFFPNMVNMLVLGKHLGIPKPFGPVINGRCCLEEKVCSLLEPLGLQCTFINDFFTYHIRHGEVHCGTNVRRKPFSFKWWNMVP

Target: human PAD4 (hPAD4) (Homo sapiens, UniProt Q9UM07)
Experiment: RFMS human PAD4 functional assay (rapid-fire mass spectrum)
Conditions: read-out: hPAD4 RFMS IC50; 5 nM hPAD4 enzyme, 250 μM BAEE, 50 μM Calcium; 30 min preincubation, 90 min reaction at 37° C.

## COc1cc(C(=O)N2C[C@H]3CC[C@@H]2[C@@H]3N)cc2nc(-c3cc4cccnc4n3CC3CC3)n(CC3CN(c4ccncn4)C3)c12
  IC50: 73 nM
